From ChEMBL document CHEMBL1140563, “Redefining the structure-activity relationships of 2,6-methano-3-benzazocines. 5. Opioid receptor binding properties of N-((4'-phenyl)-phenethyl) analogues of 8-CAC” (Bioorg Med Chem Lett, 2007)

By UniProt entry, the sequences of proteins in these tests, tags left out. Where a name states a change or a piece, a line headed by the entry shows the natural chain unless it says otherwise.
UniProt P41145: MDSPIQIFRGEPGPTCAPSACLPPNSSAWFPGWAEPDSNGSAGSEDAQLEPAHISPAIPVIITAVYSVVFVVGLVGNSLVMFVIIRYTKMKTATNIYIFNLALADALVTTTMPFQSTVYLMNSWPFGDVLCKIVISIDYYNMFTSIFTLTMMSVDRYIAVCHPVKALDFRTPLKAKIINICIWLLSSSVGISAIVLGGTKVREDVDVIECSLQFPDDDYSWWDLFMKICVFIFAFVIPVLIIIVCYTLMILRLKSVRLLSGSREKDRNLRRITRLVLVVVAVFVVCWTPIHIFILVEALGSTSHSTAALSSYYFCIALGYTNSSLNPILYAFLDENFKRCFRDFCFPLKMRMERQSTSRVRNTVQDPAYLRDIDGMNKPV

Legend:
[1] = biological target: T1, Kappa-type opioid receptor (Homo sapiens, UniProt P41145); assay: Agonist activity at human kappa opioid receptor expressed in CHO cell membrane by [35S]GTP-gamma-S binding assay; type: functional, cell membranes
[2] = biological target: T1, Kappa-type opioid receptor; assay: biochemical; type: cell-based, CHO

Compound	EC50 [1] [nM]	Ki [2] [nM]
C[C@H]1C2Cc3ccc(C(=O)NCCc4ccc(-c5ccccc5)cc4)cc3[C@@]1(C)CCN2CC1CC1	4.4	
C[C@H]1C2Cc3ccc(C(=O)NCCc4cccc(-c5ccccc5)c4)cc3[C@@]1(C)CCN2CC1CC1		2.2
